Earlier results as cited in publication PMC7346179, “Fe Porphyrin-Based SOD Mimic and Redox-Active Compound, (OH)FeTnHex-2-PyP^4+, in a Rodent Ischemic Stroke (MCAO) Model: Efficacy and Pharmacokinetics as Compared to Its Mn Analogue, (H2O)MnTnHex-2-PyP^5+” (Antioxidants, 2020).

Settings: silica plates, acetonitrile/KNO3(sat)/water = 8:1:1; cited from earlier work

## monohydroxo Fe(III) meso-tetrakis(N-n-hexylpyridinium-2yl)porphyrin [FeHex]
  Rf (thin-layer chromatographic lipophilicity): 0.597
